In PubChem BioAssay (NCI):
Some of these compounds have results that are not shown, active ones among them.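 In this assay, cells in 96-well plates receive the compound at five concentrations for 48 hours. Endpoints are linearly interpolated between the surrounding concentrations. At the GI50, growth is halved. TGI denotes the concentration required for complete inhibition of growth.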

Key:
Assay in all cases: NCI-60 cell line screen, 48 h
HS 578T breast = test system: HS 578T breast
T-47D breast = test system: T-47D breast
U251 CNS = test system: U251 CNS
HCC-2998 colon = test system: HCC-2998 colon
UO-31 renal = test system: UO-31 renal
CAKI-1 renal = test system: CAKI-1 renal
NCI-H23 lung = test system: NCI-H23 lung
SK-OV-3 ovarian = test system: SK-OV-3 ovarian
HL-60(TB) leukemia = test system: HL-60(TB) leukemia
RXF 393 renal = test system: RXF 393 renal
SNB-19 CNS = test system: SNB-19 CNS
SW-620 colon = test system: SW-620 colon
NCI/ADR-RES ovarian = test system: NCI/ADR-RES ovarian
A549 NSCLC = test system: A549 NSCLC
EKVX NSCLC = test system: EKVX NSCLC
SK-MEL-2 melanoma = test system: SK-MEL-2 melanoma
HOP-92 NSCLC = test system: HOP-92 NSCLC
IGROV1 ovarian = test system: IGROV1 ovarian
OVCAR-5 ovarian = test system: OVCAR-5 ovarian
MOLT-4 leukemia = test system: MOLT-4 leukemia
HCT-116 colon = test system: HCT-116 colon
MDA-MB-231 breast = test system: MDA-MB-231 breast
MDA-MB-435 = test system: MDA-MB-435
OVCAR-4 ovarian = test system: OVCAR-4 ovarian
HT29 colon = test system: HT29 colon
CCRF-CEM leukemia = test system: CCRF-CEM leukemia
SK-MEL-28 melanoma = test system: SK-MEL-28 melanoma
DU-145 prostate = test system: DU-145 prostate
HCT-15 colon = test system: HCT-15 colon
SF-539 CNS = test system: SF-539 CNS
COLO 205 colon = test system: COLO 205 colon
SR leukemia = test system: SR leukemia
K-562 leukemia = test system: K-562 leukemia
SF-295 CNS = test system: SF-295 CNS
UACC-257 melanoma = test system: UACC-257 melanoma
BT-549 breast = test system: BT-549 breast
NCI-H460 lung = test system: NCI-H460 lung
RPMI-8226 leukemia = test system: RPMI-8226 leukemia
SK-MEL-5 melanoma = test system: SK-MEL-5 melanoma
MALME-3M melanoma = test system: MALME-3M melanoma
A498 renal = test system: A498 renal
MDA-N = test system: MDA-N
UACC-62 melanoma = test system: UACC-62 melanoma
OVCAR-8 ovarian = test system: OVCAR-8 ovarian
MCF7 breast = test system: MCF7 breast
NCI-H226 lung = test system: NCI-H226 lung
SNB-75 CNS = test system: SNB-75 CNS
ACHN renal = test system: ACHN renal
KM12 colon = test system: KM12 colon
LOX IMVI melanoma = test system: LOX IMVI melanoma
786-0 renal = test system: 786-0 renal
PC-3 prostate = test system: PC-3 prostate
SF-268 CNS = test system: SF-268 CNS
SN12C renal = test system: SN12C renal
NCI-H522 lung = test system: NCI-H522 lung

CC#CC(O)(C(=O)OC1CN2CCC1CC2)C1CC1 (stereo not given)
GI50 (HS 578T breast): 46.7 µM
TGI (HS 578T breast): > 100 µM
GI50 (T-47D breast): > 100 µM
TGI (T-47D breast): > 100 µM
GI50 (U251 CNS): > 100 µM
TGI (U251 CNS): > 100 µM
GI50 (HCC-2998 colon): > 100 µM
TGI (HCC-2998 colon): > 100 µM
GI50 (UO-31 renal): > 100 µM
TGI (UO-31 renal): > 100 µM
GI50 (CAKI-1 renal): > 100 µM
TGI (CAKI-1 renal): > 100 µM
GI50 (NCI-H23 lung): > 100 µM
TGI (NCI-H23 lung): > 100 µM
GI50 (SK-OV-3 ovarian): > 100 µM
TGI (SK-OV-3 ovarian): > 100 µM
GI50 (HL-60(TB) leukemia): > 100 µM
TGI (HL-60(TB) leukemia): > 100 µM
GI50 (RXF 393 renal): > 100 µM
TGI (RXF 393 renal): > 100 µM
GI50 (SNB-19 CNS): > 100 µM
TGI (SNB-19 CNS): > 100 µM
GI50 (SW-620 colon): > 100 µM
TGI (SW-620 colon): > 100 µM
GI50 (NCI/ADR-RES ovarian): > 100 µM
TGI (NCI/ADR-RES ovarian): > 100 µM
GI50 (A549 NSCLC): > 100 µM
TGI (A549 NSCLC): > 100 µM
GI50 (EKVX NSCLC): > 100 µM
TGI (EKVX NSCLC): > 100 µM
GI50 (SK-MEL-2 melanoma): > 100 µM
TGI (SK-MEL-2 melanoma): > 100 µM
GI50 (HOP-92 NSCLC): > 100 µM
TGI (HOP-92 NSCLC): > 100 µM
GI50 (IGROV1 ovarian): > 100 µM
TGI (IGROV1 ovarian): > 100 µM
GI50 (OVCAR-5 ovarian): > 100 µM
TGI (OVCAR-5 ovarian): > 100 µM
GI50 (MOLT-4 leukemia): > 100 µM
TGI (MOLT-4 leukemia): > 100 µM
GI50 (HCT-116 colon): > 100 µM
TGI (HCT-116 colon): > 100 µM
GI50 (MDA-MB-231 breast): > 100 µM
TGI (MDA-MB-231 breast): > 100 µM
GI50 (MDA-MB-435): > 100 µM
TGI (MDA-MB-435): > 100 µM
GI50 (OVCAR-4 ovarian): > 100 µM
TGI (OVCAR-4 ovarian): > 100 µM
GI50 (HT29 colon): > 100 µM
TGI (HT29 colon): > 100 µM
GI50 (CCRF-CEM leukemia): > 100 µM
TGI (CCRF-CEM leukemia): > 100 µM
GI50 (SK-MEL-28 melanoma): > 100 µM
TGI (SK-MEL-28 melanoma): > 100 µM
GI50 (DU-145 prostate): > 100 µM
TGI (DU-145 prostate): > 100 µM
GI50 (HCT-15 colon): > 100 µM
TGI (HCT-15 colon): > 100 µM
GI50 (SF-539 CNS): > 100 µM
TGI (SF-539 CNS): > 100 µM
GI50 (COLO 205 colon): > 100 µM
TGI (COLO 205 colon): > 100 µM
GI50 (SR leukemia): > 100 µM
TGI (SR leukemia): > 100 µM
GI50 (K-562 leukemia): > 100 µM
TGI (K-562 leukemia): > 100 µM
GI50 (SF-295 CNS): > 100 µM
TGI (SF-295 CNS): > 100 µM
GI50 (UACC-257 melanoma): > 100 µM
TGI (UACC-257 melanoma): > 100 µM
GI50 (BT-549 breast): > 100 µM
TGI (BT-549 breast): > 100 µM
GI50 (NCI-H460 lung): > 100 µM
TGI (NCI-H460 lung): > 100 µM
GI50 (RPMI-8226 leukemia): > 100 µM
TGI (RPMI-8226 leukemia): > 100 µM
GI50 (SK-MEL-5 melanoma): > 100 µM
TGI (SK-MEL-5 melanoma): > 100 µM
GI50 (MALME-3M melanoma): > 100 µM
TGI (MALME-3M melanoma): > 100 µM
GI50 (A498 renal): > 100 µM
TGI (A498 renal): > 100 µM
GI50 (MDA-N): > 100 µM
TGI (MDA-N): > 100 µM
GI50 (UACC-62 melanoma): > 100 µM
TGI (UACC-62 melanoma): > 100 µM
GI50 (OVCAR-8 ovarian): > 100 µM
TGI (OVCAR-8 ovarian): > 100 µM
GI50 (MCF7 breast): > 100 µM
TGI (MCF7 breast): > 100 µM
GI50 (NCI-H226 lung): > 100 µM
TGI (NCI-H226 lung): > 100 µM
GI50 (SNB-75 CNS): > 100 µM
TGI (SNB-75 CNS): > 100 µM
GI50 (ACHN renal): > 100 µM
TGI (ACHN renal): > 100 µM
GI50 (KM12 colon): > 100 µM
TGI (KM12 colon): > 100 µM
GI50 (LOX IMVI melanoma): > 100 µM
TGI (LOX IMVI melanoma): > 100 µM
GI50 (786-0 renal): > 100 µM
TGI (786-0 renal): > 100 µM
GI50 (PC-3 prostate): > 100 µM
TGI (PC-3 prostate): > 100 µM
GI50 (SF-268 CNS): > 100 µM
TGI (SF-268 CNS): > 100 µM
GI50 (SN12C renal): > 100 µM
TGI (SN12C renal): > 100 µM
GI50 (NCI-H522 lung): > 100 µM
TGI (NCI-H522 lung): > 100 µM
